Measured values taken from patent publication US20260384450A1, “MACROCYCLIC AMINOPYRIDINE COMPOUNDS AS EGFR INHIBITORS” (published 2026).
Like-named read-outs stand apart in the source and are kept apart here.

Amino acid sequences for entries named in this document (tags omitted). A change or cut given only in a name is not applied to a line headed by its entry. Chains listed by the source or under a name are the forms on record and can include a tag or linker. Residues count along the entry.
UniProt P00533, 25-1210 limits assumed: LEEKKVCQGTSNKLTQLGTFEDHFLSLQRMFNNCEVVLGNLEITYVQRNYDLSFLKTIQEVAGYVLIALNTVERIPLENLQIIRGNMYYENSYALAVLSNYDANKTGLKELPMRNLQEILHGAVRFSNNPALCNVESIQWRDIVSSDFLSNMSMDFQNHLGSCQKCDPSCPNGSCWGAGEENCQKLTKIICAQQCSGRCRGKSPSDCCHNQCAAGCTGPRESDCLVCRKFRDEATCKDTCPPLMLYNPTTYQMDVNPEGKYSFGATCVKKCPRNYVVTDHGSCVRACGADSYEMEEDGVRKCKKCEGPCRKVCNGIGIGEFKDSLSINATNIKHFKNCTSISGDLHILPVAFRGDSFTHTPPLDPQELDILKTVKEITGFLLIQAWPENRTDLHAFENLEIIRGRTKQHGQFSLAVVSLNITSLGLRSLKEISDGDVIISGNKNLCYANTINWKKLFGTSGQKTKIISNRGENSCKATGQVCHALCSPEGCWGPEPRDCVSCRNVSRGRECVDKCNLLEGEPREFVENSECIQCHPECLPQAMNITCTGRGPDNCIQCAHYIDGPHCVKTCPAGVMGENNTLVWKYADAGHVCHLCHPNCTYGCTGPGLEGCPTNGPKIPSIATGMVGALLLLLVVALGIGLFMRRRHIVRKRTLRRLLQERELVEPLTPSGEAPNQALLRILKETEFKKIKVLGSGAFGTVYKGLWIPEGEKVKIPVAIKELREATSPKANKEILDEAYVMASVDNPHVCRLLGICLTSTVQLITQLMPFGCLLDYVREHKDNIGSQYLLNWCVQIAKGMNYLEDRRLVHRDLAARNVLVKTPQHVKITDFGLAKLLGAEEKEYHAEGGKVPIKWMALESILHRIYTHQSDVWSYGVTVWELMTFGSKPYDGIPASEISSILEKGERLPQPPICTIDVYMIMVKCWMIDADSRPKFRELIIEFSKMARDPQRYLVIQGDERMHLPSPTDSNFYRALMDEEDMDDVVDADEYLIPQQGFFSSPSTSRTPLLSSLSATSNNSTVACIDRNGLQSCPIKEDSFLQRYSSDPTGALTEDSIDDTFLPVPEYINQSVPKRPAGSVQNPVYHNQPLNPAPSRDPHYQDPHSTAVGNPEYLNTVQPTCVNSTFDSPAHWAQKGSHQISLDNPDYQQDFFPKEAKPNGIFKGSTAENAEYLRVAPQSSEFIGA
UniProt P00533, 25-1210 C797S/L858R limits assumed: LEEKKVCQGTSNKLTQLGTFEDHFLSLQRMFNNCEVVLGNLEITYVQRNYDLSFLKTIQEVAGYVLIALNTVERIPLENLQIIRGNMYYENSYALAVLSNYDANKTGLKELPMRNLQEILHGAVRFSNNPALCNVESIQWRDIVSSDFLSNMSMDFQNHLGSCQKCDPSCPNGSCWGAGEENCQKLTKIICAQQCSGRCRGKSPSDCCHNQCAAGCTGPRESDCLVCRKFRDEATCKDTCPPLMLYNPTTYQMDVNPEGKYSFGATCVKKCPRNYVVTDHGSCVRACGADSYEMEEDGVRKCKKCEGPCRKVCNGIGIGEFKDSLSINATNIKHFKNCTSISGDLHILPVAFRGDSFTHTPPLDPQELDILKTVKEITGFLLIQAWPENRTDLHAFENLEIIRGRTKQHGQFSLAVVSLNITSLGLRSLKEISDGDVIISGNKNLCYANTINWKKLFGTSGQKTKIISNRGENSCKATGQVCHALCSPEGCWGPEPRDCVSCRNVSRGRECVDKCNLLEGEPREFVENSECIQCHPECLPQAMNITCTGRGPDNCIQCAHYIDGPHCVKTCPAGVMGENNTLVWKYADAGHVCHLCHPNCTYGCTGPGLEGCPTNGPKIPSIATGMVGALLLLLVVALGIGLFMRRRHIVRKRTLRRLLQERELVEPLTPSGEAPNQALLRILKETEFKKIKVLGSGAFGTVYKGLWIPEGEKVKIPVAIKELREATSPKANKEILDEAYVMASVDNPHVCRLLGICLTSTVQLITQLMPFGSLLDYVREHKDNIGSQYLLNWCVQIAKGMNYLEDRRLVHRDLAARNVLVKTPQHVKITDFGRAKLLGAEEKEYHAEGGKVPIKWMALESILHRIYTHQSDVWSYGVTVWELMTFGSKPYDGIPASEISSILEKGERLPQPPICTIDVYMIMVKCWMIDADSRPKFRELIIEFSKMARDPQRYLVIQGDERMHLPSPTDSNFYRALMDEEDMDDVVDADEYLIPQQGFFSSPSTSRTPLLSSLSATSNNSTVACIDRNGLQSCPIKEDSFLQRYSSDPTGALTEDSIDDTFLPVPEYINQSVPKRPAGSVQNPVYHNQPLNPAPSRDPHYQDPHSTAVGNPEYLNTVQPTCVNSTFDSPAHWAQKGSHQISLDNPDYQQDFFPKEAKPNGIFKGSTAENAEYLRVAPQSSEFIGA
UniProt P00533, 25-1210 T790M/C797S/L858R limits assumed: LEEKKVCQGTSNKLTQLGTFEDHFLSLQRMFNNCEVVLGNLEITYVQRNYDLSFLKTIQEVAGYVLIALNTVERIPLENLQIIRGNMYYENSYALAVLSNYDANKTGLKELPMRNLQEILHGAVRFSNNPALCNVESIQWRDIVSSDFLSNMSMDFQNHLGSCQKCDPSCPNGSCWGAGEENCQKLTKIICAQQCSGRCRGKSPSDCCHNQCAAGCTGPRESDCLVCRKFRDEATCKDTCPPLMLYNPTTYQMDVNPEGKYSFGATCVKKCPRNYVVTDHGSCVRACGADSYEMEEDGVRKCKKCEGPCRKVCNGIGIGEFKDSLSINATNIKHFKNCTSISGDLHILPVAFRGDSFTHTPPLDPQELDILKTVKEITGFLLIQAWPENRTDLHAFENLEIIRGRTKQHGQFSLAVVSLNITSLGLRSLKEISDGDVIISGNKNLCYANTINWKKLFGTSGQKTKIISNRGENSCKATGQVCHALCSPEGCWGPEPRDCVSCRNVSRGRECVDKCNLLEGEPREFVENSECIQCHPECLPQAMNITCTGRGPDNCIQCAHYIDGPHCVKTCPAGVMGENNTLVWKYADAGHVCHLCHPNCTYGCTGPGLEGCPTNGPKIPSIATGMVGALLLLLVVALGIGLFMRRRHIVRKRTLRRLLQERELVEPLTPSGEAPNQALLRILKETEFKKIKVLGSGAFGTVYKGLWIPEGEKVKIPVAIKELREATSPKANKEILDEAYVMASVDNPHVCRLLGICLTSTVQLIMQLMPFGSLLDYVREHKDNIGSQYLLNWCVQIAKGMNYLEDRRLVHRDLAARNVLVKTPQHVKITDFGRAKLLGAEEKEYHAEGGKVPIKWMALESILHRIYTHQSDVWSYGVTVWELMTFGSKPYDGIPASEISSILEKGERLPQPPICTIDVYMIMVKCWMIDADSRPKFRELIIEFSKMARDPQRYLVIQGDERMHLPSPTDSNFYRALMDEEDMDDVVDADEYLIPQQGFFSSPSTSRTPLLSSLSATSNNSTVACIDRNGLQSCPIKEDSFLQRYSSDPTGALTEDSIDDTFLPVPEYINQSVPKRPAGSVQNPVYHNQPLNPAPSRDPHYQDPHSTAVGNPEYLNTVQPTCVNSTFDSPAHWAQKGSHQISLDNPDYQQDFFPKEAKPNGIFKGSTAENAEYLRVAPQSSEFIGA
UniProt P00533, with tags, fused parts or gaps DEL746-750/C797S limits assumed: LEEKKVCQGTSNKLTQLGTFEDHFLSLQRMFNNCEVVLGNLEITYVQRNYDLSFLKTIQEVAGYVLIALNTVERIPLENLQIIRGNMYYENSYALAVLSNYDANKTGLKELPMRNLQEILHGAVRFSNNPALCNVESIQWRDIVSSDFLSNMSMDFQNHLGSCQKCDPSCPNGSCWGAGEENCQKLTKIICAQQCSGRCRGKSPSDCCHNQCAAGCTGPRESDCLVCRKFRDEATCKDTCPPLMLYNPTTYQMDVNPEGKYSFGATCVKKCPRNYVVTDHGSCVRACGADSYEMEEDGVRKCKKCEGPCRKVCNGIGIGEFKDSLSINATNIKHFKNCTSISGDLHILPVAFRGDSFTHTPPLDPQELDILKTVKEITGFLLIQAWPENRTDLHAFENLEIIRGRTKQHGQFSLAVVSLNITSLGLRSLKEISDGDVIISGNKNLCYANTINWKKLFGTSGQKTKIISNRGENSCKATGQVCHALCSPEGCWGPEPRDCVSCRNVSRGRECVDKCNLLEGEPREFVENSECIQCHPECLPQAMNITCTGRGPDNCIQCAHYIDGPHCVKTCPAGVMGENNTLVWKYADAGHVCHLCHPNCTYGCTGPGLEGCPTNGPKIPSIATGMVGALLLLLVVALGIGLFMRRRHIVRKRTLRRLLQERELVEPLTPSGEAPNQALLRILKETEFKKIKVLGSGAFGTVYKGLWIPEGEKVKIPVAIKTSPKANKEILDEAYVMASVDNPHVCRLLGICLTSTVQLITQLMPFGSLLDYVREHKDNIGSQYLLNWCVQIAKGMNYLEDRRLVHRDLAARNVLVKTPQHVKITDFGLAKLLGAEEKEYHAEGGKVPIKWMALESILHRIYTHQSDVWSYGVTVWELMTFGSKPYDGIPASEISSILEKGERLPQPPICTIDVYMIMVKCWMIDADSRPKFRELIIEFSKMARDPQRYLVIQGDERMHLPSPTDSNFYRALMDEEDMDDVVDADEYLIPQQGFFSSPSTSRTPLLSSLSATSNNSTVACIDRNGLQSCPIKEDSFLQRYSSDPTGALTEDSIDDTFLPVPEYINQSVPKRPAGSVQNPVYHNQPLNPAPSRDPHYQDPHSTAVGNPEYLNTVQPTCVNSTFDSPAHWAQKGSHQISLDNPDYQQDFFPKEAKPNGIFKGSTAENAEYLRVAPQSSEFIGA
UniProt P00533, with tags, fused parts or gaps DEL746-750/T790M/C797S limits assumed: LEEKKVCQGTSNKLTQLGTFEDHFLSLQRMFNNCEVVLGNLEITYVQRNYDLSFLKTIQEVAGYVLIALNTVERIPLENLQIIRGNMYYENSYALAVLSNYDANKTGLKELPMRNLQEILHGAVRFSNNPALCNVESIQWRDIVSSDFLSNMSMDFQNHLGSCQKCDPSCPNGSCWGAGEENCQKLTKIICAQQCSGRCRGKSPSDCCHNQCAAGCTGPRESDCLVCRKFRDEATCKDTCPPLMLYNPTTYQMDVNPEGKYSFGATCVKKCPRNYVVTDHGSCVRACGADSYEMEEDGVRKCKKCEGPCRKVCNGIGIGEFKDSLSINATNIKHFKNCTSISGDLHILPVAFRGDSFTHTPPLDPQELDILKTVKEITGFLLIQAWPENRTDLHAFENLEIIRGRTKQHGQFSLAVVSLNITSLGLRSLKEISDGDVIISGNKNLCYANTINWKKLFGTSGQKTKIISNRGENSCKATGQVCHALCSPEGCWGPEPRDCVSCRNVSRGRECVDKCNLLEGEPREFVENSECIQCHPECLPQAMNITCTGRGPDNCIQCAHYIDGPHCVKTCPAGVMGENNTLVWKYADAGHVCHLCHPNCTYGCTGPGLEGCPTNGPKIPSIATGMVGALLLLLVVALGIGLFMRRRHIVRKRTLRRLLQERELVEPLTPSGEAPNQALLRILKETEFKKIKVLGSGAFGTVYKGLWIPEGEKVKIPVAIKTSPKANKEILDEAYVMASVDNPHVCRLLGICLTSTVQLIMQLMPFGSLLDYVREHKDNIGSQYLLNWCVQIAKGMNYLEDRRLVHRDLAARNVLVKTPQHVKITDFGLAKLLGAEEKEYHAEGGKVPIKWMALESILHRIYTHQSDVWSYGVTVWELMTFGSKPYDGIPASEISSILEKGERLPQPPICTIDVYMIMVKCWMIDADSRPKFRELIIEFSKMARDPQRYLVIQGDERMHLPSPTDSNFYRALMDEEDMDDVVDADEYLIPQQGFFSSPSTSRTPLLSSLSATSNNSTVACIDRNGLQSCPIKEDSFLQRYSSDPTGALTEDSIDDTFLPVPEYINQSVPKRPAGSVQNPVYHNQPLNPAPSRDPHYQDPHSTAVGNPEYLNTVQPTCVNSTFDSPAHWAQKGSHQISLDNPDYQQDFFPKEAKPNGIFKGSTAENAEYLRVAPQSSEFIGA

What was measured:
[1] = target: EGFR LRTMCS (L858R/T790M/C797S) (Homo sapiens, UniProt P00533, C797S/L858R/T790M); test: Biochemical EGFR kinase assay (Lance Ultra TR-FRET), triple mutant L858R/T790M/C797S
EGFR WT = EGFR WT (Homo sapiens, UniProt P00533); test: Biochemical EGFR kinase assay (Lance Ultra TR-FRET), wildtype
EGFR LRCS (L858R/C797S) = EGFR LRCS (L858R/C797S) (Homo sapiens, UniProt P00533, C797S/L858R); test: Biochemical EGFR kinase assay (Lance Ultra TR-FRET), double mutant L858R/C797S
EGFR D19CS (del19/C797S) = EGFR D19CS (del19/C797S) (Homo sapiens, UniProt P00533, C797S/DEL746-750); test: Biochemical EGFR kinase assay (Lance Ultra TR-FRET), double mutant del19/C797S
[2] = target: EGFR D19TMCS (del19/T790M/C797S) (Homo sapiens, UniProt P00533, C797S/DEL746-750/T790M); test: Biochemical EGFR kinase assay (Lance Ultra TR-FRET), triple mutant del19/T790M/C797S
[3] = read-out: EGFR LRTMCS IC50, ATP 1 mM
[4] = read-out: EGFR LRTMCS IC50, ATP Km
[5] = read-out: EGFR WT IC50, ATP 1 mM
[6] = read-out: EGFR LRCS IC50, ATP 1 mM
[7] = read-out: EGFR LRCS IC50, ATP Km
[8] = read-out: EGFR D19CS IC50, ATP 1 mM
[9] = read-out: EGFR D19CS IC50, ATP Km
[10] = read-out: EGFR D19TMCS IC50, ATP 1 mM
[11] = read-out: EGFR D19TMCS IC50, ATP Km

Structure (SMILES) | IC50 [1, 3] [nM] | IC50 [1, 4] [nM] | IC50 (EGFR WT; [5]) [nM] | IC50 (EGFR WT; read-out: EGFR WT IC50, ATP Km) [nM] | IC50 (EGFR LRCS (L858R/C797S); [6]) [nM] | IC50 (EGFR LRCS (L858R/C797S); [7]) [nM] | IC50 (EGFR D19CS (del19/C797S); [8]) [nM] | IC50 (EGFR D19CS (del19/C797S); [9]) [nM] | IC50 [2, 10] [nM] | IC50 [2, 11] [nM] | IC50 ([1]; read-out: IC50, EGFR LRTMCS, 1 mM, ATP 1 mM, EGFR L858R/T790M/C797S) [nM] | IC50 ([1]; read-out: IC50, EGFR LRTMCS, Km, ATP at Km, EGFR L858R/T790M/C797S) [nM] | IC50 (EGFR WT; read-out: IC50, EGFR WT, 1 mM, ATP 1 mM, EGFR wildtype) [nM] | IC50 (EGFR WT; read-out: IC50, EGFR WT, Km, ATP at Km, EGFR wildtype) [nM] | IC50 (EGFR LRCS (L858R/C797S); read-out: IC50, EGFR-LRCS, 1 mM, ATP 1 mM, EGFR L858R/C797S) [nM] | IC50 (EGFR LRCS (L858R/C797S); read-out: IC50, EGFR-LRCS, Km, ATP at Km, EGFR L858R/C797S) [nM] | IC50 (EGFR D19CS (del19/C797S); read-out: IC50, EGFR-D19CS, 1 mM, ATP 1 mM, EGFR del19/C797S) [nM] | IC50 (EGFR D19CS (del19/C797S); read-out: IC50, EGFR-D19CS, Km, ATP at Km, EGFR del19/C797S) [nM] | IC50 ([2]; read-out: IC50, EGFR D19TMCS, Km, ATP at Km, EGFR del19/T790M/C797S) [nM]
Cc1nn(C)c2c1-c1nccc(n1)Nc1cc(c(-c3ncc(CN4CC(C(C)(C)F)C4)cc3F)cn1)N[C@@H](C)CCO2 | < 10 | < 10 | > 1000 | < 10 | 10 to 100 | < 10 | < 10 | < 10 | < 10 | < 10 | – | – | – | – | – | – | – | – | –
Cc1nn(C)c2c1-c1nccc(n1)Nc1cc(c(-c3ncc(C(C)(C)F)cn3)cn1)N[C@@H](C)CCO2 | < 10 | < 10 | > 1000 | 10 to 100 | > 1000 | < 10 | 10 to 100 | < 10 | < 10 | < 10 | – | – | – | – | – | – | – | – | –
COc1cccnc1-c1cnc2cc1NCCCOc1c(cnn1C)-c1nccc(n1)N2 | 100 to 1000 | < 10 | > 1000 | > 1000 | > 1000 | > 1000 | > 1000 | > 1000 | > 1000 | 10 to 100 | – | – | – | – | – | – | – | – | –
Cn1ncc2c1OCC(C(F)(F)F)CNc1cc(ncc1-c1ccn(C(F)F)n1)Nc1ccnc-2n1 (stereo not shown) | 10 to 100 | < 10 | > 1000 | > 1000 | > 1000 | 10 to 100 | > 1000 | 100 to 1000 | 10 to 100 | < 10 | – | – | – | – | – | – | – | – | –
Cc1nn(C)c2c1-c1nccc(n1)Nc1cc(c(-c3ncc(CN4CCN(C)CC4)cc3F)cn1)NCC(C)(C)CO2 | < 10 | < 10 | > 1000 | < 10 | 10 to 100 | < 10 | < 10 | < 10 | < 10 | < 10 | – | – | – | – | – | – | – | – | –
CO[C@H]1CC[C@H](Nc2ccnc(-c3cnc4cc3N[C@@H](C)CCOc3c(cnn3C)-c3nccc(n3)N4)c2)C1 | 10 to 100 | < 10 | > 1000 | 10 to 100 | 100 to 1000 | 10 to 100 | 100 to 1000 | 10 to 100 | < 10 | < 10 | – | – | – | – | – | – | – | – | –
C[C@H]1CCOc2c(cnn2C)-c2nccc(n2)Nc2cc(c(-c3cnccn3)cn2)N1 | < 10 | < 10 | > 1000 | 10 to 100 | 100 to 1000 | 10 to 100 | 10 to 100 | 10 to 100 | < 10 | < 10 | – | – | – | – | – | – | – | – | –
Cc1nn(C)c2c1-c1nccc(n1)Nc1cc(c(-c3ncc(C(C)(C)O)cc3F)cn1)N[C@@H](C)CCO2 | 10 to 100 | < 10 | > 1000 | 10 to 100 | 100 to 1000 | < 10 | 10 to 100 | < 10 | < 10 | < 10 | – | – | – | – | – | – | – | – | –
Cc1nn(C)c2c1-c1nccc(n1)Nc1cc(c(-c3ncc(CN4CCN(C)CC4)cc3F)cn1)NCC[C@@H](C)O2 | – | – | – | – | – | – | – | – | – | – | < 10 | < 10 | > 1000 | < 10 | < 10 | < 10 | < 10 | < 10 | < 10
Cc1cn(C)nc1-c1cnc2cc1NCC[C@H](C)Oc1c(cnn1C)-c1nccc(n1)N2 | < 10 | < 10 | > 1000 | 10 to 100 | 100 to 1000 | < 10 | 100 to 1000 | 10 to 100 | < 10 | < 10 | – | – | – | – | – | – | – | – | –
Cn1ncc2c1OCC(C)(C)CNc1cc(ncc1-c1cnc(OC3COC3)cn1)Nc1ccnc-2n1 | 10 to 100 | < 10 | > 1000 | 10 to 100 | > 1000 | 10 to 100 | 100 to 1000 | 10 to 100 | < 10 | < 10 | – | – | – | – | – | – | – | – | –
